Data: US10538534B2 (Colorado State University Research Foundation, priority 2015, dated 2020)

Experiments:
[1] = tested on: 797 NUT midline carcinoma cell line; assay: Anti-cancer activity in NUT midline carcinoma cell line
[2] = tested on: 10326 NUT midline carcinoma cell line; assay: as above

## CC(C)[C@@H]1NC(=O)[C@]2(C)CSC(=N2)c2csc(n2)CNC(=O)C[C@@H](/C=C/CCS)NC1=O
[1]; 797 cell line
  IC50 difference below that of parent largazole: 10 nM
[1]; read-out: IC50 in 797 cells, 797 NUT midline carcinoma cell line
  IC50: 10 nM
[2]; 10326 cell line
  IC50 difference below that of parent largazole: 20 nM
[2]; read-out: IC50 in 10326 cells, 10326 NUT midline carcinoma cell line
  IC50: 10 nM
